Measured values: publication PMC9230784, “Development of a Novel Class of Pyridazinone Derivatives as Selective MAO-B Inhibitors” (Molecules, 2022)

By UniProt entry, the sequences of proteins in these tests, tags left out.
UniProt P27338, whole entry: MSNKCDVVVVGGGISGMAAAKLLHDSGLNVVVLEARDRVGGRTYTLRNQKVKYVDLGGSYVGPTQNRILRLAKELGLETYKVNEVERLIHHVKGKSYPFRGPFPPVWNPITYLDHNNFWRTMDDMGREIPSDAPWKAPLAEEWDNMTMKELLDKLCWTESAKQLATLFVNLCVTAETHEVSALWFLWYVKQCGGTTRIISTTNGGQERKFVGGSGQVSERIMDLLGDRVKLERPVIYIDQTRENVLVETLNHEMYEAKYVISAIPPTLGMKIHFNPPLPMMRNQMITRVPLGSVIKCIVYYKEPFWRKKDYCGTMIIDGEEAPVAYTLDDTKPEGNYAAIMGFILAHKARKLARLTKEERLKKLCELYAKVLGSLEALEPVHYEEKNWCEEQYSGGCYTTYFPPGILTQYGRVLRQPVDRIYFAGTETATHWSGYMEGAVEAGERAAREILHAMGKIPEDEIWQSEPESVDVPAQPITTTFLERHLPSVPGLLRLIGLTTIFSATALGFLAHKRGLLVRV

Target: T1, MAO-B (Homo sapiens, UniProt P27338)
T1 construct: purchased Sigma-Aldrich (St. Louis, MO, USA)
Format: biochemical
Details: MAO-B versus MAO-A
Protocol: The IC50 values were determined by measuring the residual activity at different concentrations of the compounds and by using GraphPad Prism software 5.0. […] BACE1 inhibitory activities were tested by the BACE1 activity detection kit. The assay method was described previously. Recombinant human MAO-A and MAO-B, AChE from Electrophorus electricus, BChE from equine serum, BACE1, and their substrates and reference inhibitors were purchased from Sigma-Aldrich (St. Louis, MO, USA). […]

Compound: O=C(Cn1nc(N2CCOCC2)ccc1=O)NN=Cc1ccc(F)cc1 [TR15]
- SI (selectivity index for MAO-B compared with MAO-A): >93.02
